# Experimental data from patent US20080227832A1, “Modified Coffee, Method of Roasting Coffee Bean, Coffee-Like Supplement and Auxiliary Food” (TAMA-TLO Corporation, priority 2004, published 2008).
# Assay: Metabolites in 24-hour urine of rats given Maillard reaction products orally (HPLC)
# Details: rat
# Experimental: Then, 100 μl of acetonitrile/phosphate buffer (7/93) adjusted to pH 2.0 was injected into the HPLC apparatus through the injection microsyringe. The apparatus and the experimental conditions were the same as those described above.
# The specification of the HPLC apparatus and experimental conditions were the same as described above.
compound,measurement,setting,value
O=Cc1ccc[nH]1 [pyrrole-2-aldehyde],extent of metabolism of the administered amount,"50 mg/kg oral, urine collected after 24 hours",the total amount of what was administered was metabolized
same,conversion by metabolism in liver,"50 mg/kg, 24-hour urine",converted into a group C compound
